From patent US20230312639A1, “GPER PROTEOLYTIC TARGETING CHIMERAS” (University of Iowa Research Foundation, priority 2020, published 2023)

Amino acid sequences for entries named in this document (tags omitted).
UniProt P61073, whole entry: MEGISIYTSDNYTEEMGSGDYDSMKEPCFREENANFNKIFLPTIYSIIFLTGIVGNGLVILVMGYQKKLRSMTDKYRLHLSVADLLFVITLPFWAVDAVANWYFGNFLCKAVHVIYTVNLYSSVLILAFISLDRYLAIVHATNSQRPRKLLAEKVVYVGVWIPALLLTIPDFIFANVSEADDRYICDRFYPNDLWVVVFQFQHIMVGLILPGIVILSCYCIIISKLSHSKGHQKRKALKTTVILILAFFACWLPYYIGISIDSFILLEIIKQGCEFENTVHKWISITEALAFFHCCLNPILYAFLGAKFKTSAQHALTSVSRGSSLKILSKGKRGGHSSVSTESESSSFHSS
UniProt P08588, whole entry: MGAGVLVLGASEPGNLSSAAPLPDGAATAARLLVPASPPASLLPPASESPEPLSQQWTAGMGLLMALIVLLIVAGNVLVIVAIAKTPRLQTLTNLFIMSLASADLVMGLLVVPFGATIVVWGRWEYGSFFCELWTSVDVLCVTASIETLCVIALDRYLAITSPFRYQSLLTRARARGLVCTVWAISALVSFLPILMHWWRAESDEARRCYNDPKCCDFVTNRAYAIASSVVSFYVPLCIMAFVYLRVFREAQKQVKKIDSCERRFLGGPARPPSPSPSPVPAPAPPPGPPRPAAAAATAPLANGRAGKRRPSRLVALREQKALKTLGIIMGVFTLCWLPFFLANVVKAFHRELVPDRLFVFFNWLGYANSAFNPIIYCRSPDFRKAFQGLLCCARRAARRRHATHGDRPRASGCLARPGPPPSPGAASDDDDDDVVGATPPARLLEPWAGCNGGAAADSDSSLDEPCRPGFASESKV
UniProt P03372, whole entry: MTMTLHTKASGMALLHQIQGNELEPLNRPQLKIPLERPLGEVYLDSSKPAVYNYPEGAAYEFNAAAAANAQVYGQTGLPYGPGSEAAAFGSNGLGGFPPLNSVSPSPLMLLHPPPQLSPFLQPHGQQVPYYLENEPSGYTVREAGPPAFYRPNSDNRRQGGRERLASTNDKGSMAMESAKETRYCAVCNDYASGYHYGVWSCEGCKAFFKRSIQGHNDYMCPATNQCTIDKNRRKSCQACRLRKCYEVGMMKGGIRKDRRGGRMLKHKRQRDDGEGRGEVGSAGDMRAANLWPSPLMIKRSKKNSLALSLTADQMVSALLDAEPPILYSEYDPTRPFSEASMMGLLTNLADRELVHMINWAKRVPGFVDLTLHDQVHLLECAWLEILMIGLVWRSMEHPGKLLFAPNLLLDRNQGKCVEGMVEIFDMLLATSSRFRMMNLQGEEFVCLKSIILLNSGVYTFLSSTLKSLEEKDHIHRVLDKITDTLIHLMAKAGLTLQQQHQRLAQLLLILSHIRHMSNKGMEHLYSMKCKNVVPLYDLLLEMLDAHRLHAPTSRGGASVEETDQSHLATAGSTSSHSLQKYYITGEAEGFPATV

What was measured:
[1] = target: HA-CXCR4 (Homo sapiens, UniProt P61073); experiment: Immunofluorescence with HA antibody, stably transfected HEK293 cells; conditions: 100 µM, 1 hour
[2] = target: HA-b1AR (Homo sapiens, UniProt P08588); experiment: as above; conditions: 100 µM, 1 hour
[3] = tested on: ERs (ERa and ERb); experiment: Fluorescence polarization competitive binding with E2-FITC in cytosolic fractions from MCF-7 cells; set-up: species or system human
[4] = tested on: MCF-7 cells; experiment: Cell cycle analysis, propidium iodide, flow cytometry; conditions: MCF-7, 10 µM, 24 hours
[5] = tested on: SKBR3 cells; experiment: as above; conditions: SKBR3, 10 µM, 24 hours
[6] = tested on: HCC1806 cells; experiment: as above; conditions: HCC1806, 10 µM, 24 hours
[7] = tested on: MDA-MB-231 cells; experiment: as above; conditions: MDA-MB-231, 10 µM, 24 hours
[8] = target: HiBiT-ERα (Homo sapiens, UniProt P03372); experiment: Nano-BiT binary luminescence complementation, transfected HEK-293 cells, total receptor; type: cell-based
[9] = tested on: MDA-MB-231 cells; experiment: Cell viability assay, 24 hour treatment; conditions: read-out: IC50 (µM), cell viability; MDA-MB-231, 24 hours

## Cc1ncsc1-c1ccc(CNC(=O)[C@@H]2C[C@@H](O)CN2C(=O)[C@@H](NC(=O)COCCOCCOCCOCC(=O)NCCOCCOCCOCCOCCOCCOCCOCCOCC(=O)O[C@H]2CC[C@H]3[C@@H]4CCc5cc(O)ccc5[C@H]4CC[C@]23C)C(C)(C)C)cc1
[1]
  off-target degradation of HA-CXCR4: without detectable off-target degradation
[2]
  off-target degradation of HA-b1AR: without detectable off-target degradation
[3]; IC50 of 17β-E2 divided by IC50 of test compound
  RBA%, ERs: 49%
[3]; read-out: IC50 (nM), ERs, MCF-7 cytosolic fraction, 10 nM E2-FITC, mean ± SD of triplicates
  IC50: 11.4 nM
[3]; read-out: binding dissociation constant (Kd), ER, MCF-7 cytosolic fractions, E2-FITC
  Kd: 11.4 nM
[4]
  cell cycle distribution: dramatic increase in the G2/M peak
[5]
  cell cycle distribution: dramatic increase in the G2/M peak
[6]
  cell cycle distribution: dramatic increase in the G2/M peak
[7]
  cell cycle distribution: This shift was not observed
[8]; 100 µM, as early as 1 h
  reduction in expression level of recombinant ER: 50%
[8]; increasing doses, 1 hour, partial PROTAC 100 µM
  change of HiBiT-ERα: dose-dependent decrease
[9]
  IC50: > 100 µM
